These results are taken from ChEMBL document CHEMBL1135999, “Discovery of N-isoxazolyl biphenylsulfonamides as potent dual angiotensin II and endothelin A receptor antagonists” (J Med Chem, 2002).

Usually Ki stands for the dissociation constant of the complex between target and ligand, obtained from inhibition or displacement. A high value points to lower affinity.

In the assay the target is Type-1 angiotensin II receptor (Homo sapiens, UniProt P30556). The assay can be described thus: Compound was evaluated for its binding affinity towards human Angiotensin II receptor, type 1. Summed up:
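Human recombinant AT1 receptor membranes in 50 mM Tris-HCl pH 7.4, 10 mM MgCl2, 1 mM EDTA, 0.1% BSA; 0.2 nM [125I]-Sar-Ile-angiotensin II displaced by increasing compound concentrations; nonspecific binding with 10 μM angiotensin II; 0.1% DMSO vehicle; 60 min at 37 °C; bound radioligand separated and gamma-counted; IC50 by curve fitting.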

SMILES strings stand for the structures.

Consider `CCCCC1=NC2(CCCC2)C(=O)N1Cc1ccc(-c2ccccc2S(=O)(=O)Nc2onc(C)c2C)c(CN2CCC(C)(C)C2=O)c1` [BMS-248360], for which the inhibitory constant (Ki) is 0.01 µM.
